Patent US20230338526A1 (BIO THERA SOLUTIONS, published 2023)

Tests used:
CD20 [1] = biological target: T1, CD20 (human, UniProt P11836 1-297); test: cell-based or functional assay
T1 sequence (looked up): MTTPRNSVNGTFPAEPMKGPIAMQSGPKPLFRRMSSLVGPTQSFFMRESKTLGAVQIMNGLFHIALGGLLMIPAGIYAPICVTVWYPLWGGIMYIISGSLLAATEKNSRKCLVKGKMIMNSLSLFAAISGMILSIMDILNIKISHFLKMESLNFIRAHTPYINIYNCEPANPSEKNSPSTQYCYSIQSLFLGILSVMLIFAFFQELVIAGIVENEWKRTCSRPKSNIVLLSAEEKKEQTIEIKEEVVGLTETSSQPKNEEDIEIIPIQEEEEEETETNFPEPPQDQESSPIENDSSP

CD20 [2] = biological target: T1, CD20; test: cell-based or functional assay; remark: listed apart in the source
CD20 [3] = biological target: T1, CD20; test: binding to CD20+ cells; method and cell line not stated

B1: Ofatumumab (antibody, V domains shown)
VH: EVQLVESGGGLVQPGRSLRLSCAASGFTFNDYAMHWVRQAPGKGLEWVSTISWNSGSIGYADSVKGRFTISRDNAKKSLYLQMNSLRAEDTALYYCAKDIQYGNYYYGMDVWGQGTTVTVSS
VL: EIVLTQSPATLSLSPGERATLSCRASQSVSSYLAWYQQKPGQAPRLLIYDASNRATGIPARFSGSGSGTDFTLTISSLEPEDFAVYYCQQRSNWPITFGQGTRLEIK
CD20 [1]
  Percentage of whole blood B-cell depletion in vitro, 10 ng/ml: 27%
  Percentage of whole blood B-cell depletion in vitro, 50 ng/ml: 53.2%
CD20 [2]
  ADCC, PBMC method: 0.0261 nM
  ADCC, Reporter gene assay method: 0.011 nM
CD20 [3]
  Binding to CD 20^+ cells: 4.16 nM
